Laboratory results: PubChem BioAssay (NCI)
“And” between values parts separate entries of the source, which are not always exact repeats. Identical values can stand only once. The list shows a part of the results, in another mix than the full data. Some structures have more than one record in an assay (separate samples or runs), and their calls can disagree. The source made the active and inactive calls. Rule as the data show it: active = growth inhibition above about 70%; inactive = the rest.

Key:
[1] = NCI Yeast Anticancer Drug Screen. Data for the rad50 strain (AID 155);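 also: 0% = growth of vehicle-only cultures of the same strain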; details: S. cerevisiae rad50 strain growth inhibition, stronger effect = higher value
[2] = NCI Yeast Anticancer Drug Screen. Data for the mec2-1 strain (AID 157); details: S. cerevisiae mec2-1 strain, stronger effect = higher value
[3] = NCI Yeast Anticancer Drug Screen. Data for the sgs1 mgt1 strain (AID 161);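 also: 0% = growth of cultures given vehicle only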; details: S. cerevisiae sgs1 mgt1 strain, stronger effect = higher value
[4] = NCI Yeast Anticancer Drug Screen. Data for the cln2 rad14 strain (AID 165);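 also: 0% = growth equal to vehicle treated cultures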; details: S. cerevisiae cln2 rad14 strain, stronger effect = higher value
[5] = NCI Yeast Anticancer Drug Screen. Data for the bub3 strain (AID 167); details: S. cerevisiae bub3 mutant strain, stronger effect = higher value
[6] = NCI Yeast Anticancer Drug Screen. Data for the mlh1 rad18 strain (AID 175); details: S. cerevisiae mlh1 rad18 strain growth inhibition, stronger effect = higher value
[7] = NCI Yeast Anticancer Drug Screen. Data for the rad50EPP+ strain (AID 151);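 also: 0% = growth of vehicle-treated control cultures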; details: S. cerevisiae rad50 mutant strain, stronger effect = higher value
Procedure, shortened: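 Growth inhibition read against vehicle controls in rad50EPP+ yeast, a strain altered in DNA damage repair, after compound exposure.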

[8] = at 5.0 µM (retest, dose inferred, filed as 0.5)
[9] = at 50.0 µM (retest, dose inferred, filed as 5.0)

Measured: growth inhibition

CCC(C)[S+]1C2CCCCCCC21.O=[N+]([O-])c1cc([N+](=O)[O-])c(S(=O)(=O)[O-])c([N+](=O)[O-])c1
inactive: [1]; [8] 4% | [1]; [9] 24% | [1]; at 50.0 µM 50.3% | [2]; [8] 16% | [2]; [9] 45% | [2]; at 50.0 µM 16.1% | [3]; [8] -19% | [3]; [9] 29% | [3]; at 50.0 µM 63.1% | [4]; [8] -6% | [4]; [9] 16% | [4]; at 50.0 µM 46.3% | [5]; [8] 18% | [5]; [9] 47% | [5]; at 50.0 µM 53.4% | [6]; [8] 18% | [6]; [9] 38% | [6]; at 50.0 µM 21.9%

O=[N+]([O-])OCC1CO1 (stereo not drawn)
inactive: [1]; [8] 2% | [1]; [9] 2% | [1]; at 50.0 µM -10.8% | [2]; [8] 4% | [2]; [9] 2% | [2]; at 50.0 µM -1.1% | [3]; [8] 3% | [3]; [9] 3% | [3]; at 50.0 µM -12.1% | [4]; [8] 2% | [4]; [9] 0% | [4]; at 50.0 µM 31.1% | [5]; [8] -1% | [5]; [9] -3% | [5]; at 50.0 µM 13% | [6]; [8] -2% | [6]; [9] -4% | [6]; at 50.0 µM -0.55%

O=C1c2cc([N+](=O)[O-])ccc2-c2c1cc([N+](=O)[O-])cc2[N+](=O)[O-].c1ccc2c(c1)Cc1ccccc1-2
inactive: [3]; [9] 35%
active: [1]; [8] 99% | [1]; [9] 95% | [1]; at 50.0 µM 79.2% | [2]; [8] 100% | [2]; [9] 97% | [2]; at 50.0 µM 90.3% | [3]; [8] 100% | [3]; at 50.0 µM 88.7% | [4]; [8] 97% | [4]; [9] 89% | [4]; at 50.0 µM 70.3% | [5]; [8] 99% | [5]; [9] 96% | [5]; at 50.0 µM 93.5% | [6]; [8] 99% | [6]; [9] 93% | [6]; at 50.0 µM 72.5%

O=[N+]([O-])C(F)(COCC(O)CO)[N+](=O)[O-] (stereo not drawn)
active: [7]; at 33.0 µM 75% | [7]; at 100.0 µM 92% | [1]; [9] 81% | [1]; at 100.0 µM 88% | [2]; at 100.0 µM 92% | [3]; [9] 86% | [3]; at 50.0 µM 83.1% | [5]; at 100.0 µM 84% | [6]; [9] 87% | [6]; at 50.0 µM 71.3%
inactive: [7]; at 1.2 µM -6% | [7]; at 3.7 µM 3% | [7]; at 11.0 µM 31% | [1]; at 1.2 µM -7% | [1]; at 3.7 µM 0% | [1]; [8] 19% | [1]; at 11.0 µM 31% | [1]; at 33.0 µM 67% | [1]; at 50.0 µM 70% | [2]; at 1.2 µM -11% | [2]; at 3.7 µM -19% | [2]; [8] -6% | [2]; at 11.0 µM -11% | [2]; at 33.0 µM 41% | [2]; [9] 53% | [2]; at 50.0 µM 35.7% | [3]; [8] 34% | [4]; [8] 5% | [4]; [9] 64% | [4]; at 50.0 µM 63% | [5]; at 1.2 µM -44% | [5]; at 3.7 µM -30% | [5]; [8] 1% | [5]; at 11.0 µM -40% | [5]; at 33.0 µM 23% | [5]; [9] 65% | [5]; at 50.0 µM 42.3% | [6]; [8] 44%

Cc1c([N+](=O)[O-])cc([N+](=O)[O-])c(-c2ccc([N+](=O)[O-])cc2[N+](=O)[O-])c1[N+](=O)[O-]
inactive: [1]; at 50.0 µM 10.7% | [2]; at 50.0 µM 14.4% | [3]; at 50.0 µM 42% | [4]; at 50.0 µM -5.6% | [5]; at 50.0 µM -2.05% | [6]; at 50.0 µM 35.5%
active: [1]; [8] 92% | [1]; [9] 93% | [2]; [8] 93% | [2]; [9] 96% | [3]; [8] 98% | [3]; [9] 96% | [4]; [8] 84% | [4]; [9] 94% | [5]; [8] 98% | [5]; [9] 95% | [6]; [8] 96% | [6]; [9] 95%

C=CCc1cccc2ccccc12.O=[N+]([O-])c1cc([N+](=O)[O-])cc([N+](=O)[O-])c1
active: [1]; [9] 99% | [1]; at 50.0 µM 99.6% | [2]; [9] 100% | [2]; at 50.0 µM 99.5% | [3]; [9] 100% | [3]; at 50.0 µM 99.5% | [4]; [9] 99% | [4]; at 50.0 µM 99% | [5]; [9] 99% | [5]; at 50.0 µM 99.3% | [6]; [9] 99% | [6]; at 50.0 µM 99.2%
inactive: [1]; [8] 25% | [2]; [8] 14% | [3]; [8] 37% | [4]; [8] 6% | [5]; [8] 33% | [6]; [8] 17%

CCCCCCCCCCCCCNCC(C)O.O=[N+]([O-])c1cc([N+](=O)[O-])c(O)c([N+](=O)[O-])c1 (stereo not drawn)
inactive: [1]; [8] 1% | [1]; [9] 35% | [1]; at 50.0 µM 67.2% | [2]; [8] -3% | [2]; [9] 4% | [2]; at 50.0 µM 20.2% | [3]; [8] 1% | [3]; [9] 55% | [4]; [8] 10% | [4]; [9] 12% | [4]; at 50.0 µM 5.2% | [5]; [8] 0% | [5]; [9] 18% | [5]; at 50.0 µM 18.9% | [6]; [8] -13% | [6]; [9] 33% | [6]; at 50.0 µM 63.5%
active: [3]; at 50.0 µM 73.9%

CCC(C)(C)CNc1c([N+](=O)[O-])cc([N+](=O)[O-])cc1[N+](=O)[O-]
inactive: [1]; [8] 30% | [2]; [8] 30% | [3]; [8] 50% | [4]; [8] 13% | [4]; [9] 43% | [4]; at 50.0 µM 40.6% | [5]; [8] 28% | [6]; [8] 40%
active: [1]; [9] 89% | [1]; at 50.0 µM 97% | [2]; [9] 87% | [2]; at 50.0 µM 81.5% | [3]; [9] 99% | [3]; at 50.0 µM 99.4% | [5]; [9] 88% | [5]; at 50.0 µM 98% | [6]; [9] 92% | [6]; at 50.0 µM 97.5%

Cc1ccc(C2=CC=C(c3ccccc3)C2)cc1.O=[N+]([O-])c1cc([N+](=O)[O-])cc([N+](=O)[O-])c1
active: [1]; [9] 98% | [1]; at 50.0 µM 98.8% | [2]; [9] 98% | [2]; at 50.0 µM 99.5% | [3]; [9] 99% | [3]; at 50.0 µM 99.4% | [4]; [9] 97% | [4]; at 50.0 µM 99.1% | [5]; [8] 73% | [5]; [9] 98% | [5]; at 50.0 µM 99.1% | [6]; [9] 99% | [6]; at 50.0 µM 99.2%
inactive: [1]; [8] 36% | [2]; [8] 34% | [3]; [8] 51% | [4]; [8] 8% | [6]; [8] 28%

O=[N+]([O-])c1ccc(Sc2ccc([N+](=O)[O-])cc2[N+](=O)[O-])c([N+](=O)[O-])c1
inactive: [1]; [8] 45% | [2]; [8] 46% | [3]; [8] 55% | [4]; [8] 42% | [5]; [8] 51%
active: [1]; [9] 98% | [1]; at 50.0 µM 91.1% | [2]; [9] 100% | [2]; at 50.0 µM 93.8% | [3]; [9] 99% | [3]; at 50.0 µM 93.9% | [4]; [9] 98% | [4]; at 50.0 µM 91.4% | [5]; [9] 99% | [5]; at 50.0 µM 91.7% | [6]; [8] 74% | [6]; [9] 99% | [6]; at 50.0 µM 90.7%

O=C(O)C(O)(c1ccccc1)c1ccccc1
inactive: [1]; [8] 9% | [1]; [9] 66% | [1]; at 50.0 µM 67.5% | [2]; [8] 5% | [2]; [9] 19% | [2]; at 50.0 µM 66.1% | [3]; [8] 1% | [3]; [9] 15% | [3]; at 50.0 µM 67% | [4]; [8] 1% | [4]; [9] 3% | [4]; at 50.0 µM 12.8% | [5]; [8] 46% | [5]; [9] 31% | [6]; [8] 8% | [6]; [9] 30% | [6]; at 50.0 µM 56%
active: [5]; at 50.0 µM 74.8%

Cc1ccnc(C)c1.O=[N+]([O-])c1cc([N+](=O)[O-])c(O)c([N+](=O)[O-])c1
inactive: [1]; at 50.0 µM 2.5% | [2]; at 50.0 µM 7.45% | [3]; at 50.0 µM -10.8% | [4]; at 50.0 µM -5% | [5]; at 50.0 µM -1.35%

CC(C)N(CCCl)C(C)C
inactive: [1]; [8] 2% | [1]; [9] 12% | [2]; [8] -4% | [2]; [9] -1% | [3]; [8] 2% | [3]; [9] 15% | [4]; [8] -1% | [4]; [9] 1% | [5]; [8] -1% | [5]; [9] 3% | [6]; [8] 13% | [6]; [9] 31%

C1CN1.NC(CO)C(=O)O.NC(Cc1cnc[nH]1)C(=O)O (stereo not drawn)
inactive: [2]; [8] -6% and -5% | [2]; [9] 41% and 24% | [4]; [9] 52% and 11% | [5]; [9] 67% and 26%
active: [1]; [9] 72% and 91% | [1]; at 50.0 µM 98.8% | [2]; at 50.0 µM 98.2% and 98.5% | [3]; [9] 75% and 70% | [3]; at 50.0 µM 98.9% and 99.2% | [4]; at 50.0 µM 97.5% and 99.1% | [5]; at 50.0 µM 99.2% and 99.4% | [6]; [9] 75% and 85% | [6]; at 50.0 µM 98% and 98.8%

Cc1cccc2ccc3ccccc3c12.O=C1c2cc([N+](=O)[O-])ccc2-c2c1cc([N+](=O)[O-])cc2[N+](=O)[O-]
active: [6]; at 50.0 µM 75.5%
inactive: [1]; [8] 7% | [1]; [9] 31% | [1]; at 50.0 µM 60.4% | [2]; [8] 8% | [2]; [9] 21% | [2]; at 50.0 µM 7.2% | [3]; [8] 2% | [3]; [9] 45% | [3]; at 50.0 µM 26.7% | [4]; [9] 5% | [4]; at 50.0 µM 11.3% | [5]; [8] 4% | [5]; [9] 23% | [5]; at 50.0 µM 65.1% | [6]; [8] 18% | [6]; [9] 44%

C/C([N+](=O)[O-])=[N+](/[O-])C(C)([N+](=O)[O-])[N+](=O)[O-]
active: [1]; [8] 78% | [1]; [9] 99% | [1]; at 50.0 µM 99.5% | [2]; [8] 76% | [2]; [9] 99% | [2]; at 50.0 µM 99.7% | [3]; [8] 75% | [3]; [9] 99% | [3]; at 50.0 µM 99.5% | [4]; [8] 70% | [4]; [9] 99% | [4]; at 50.0 µM 99.2% | [5]; [8] 90% | [5]; [9] 99% | [5]; at 50.0 µM 99.5% | [6]; [8] 89% | [6]; [9] 98% | [6]; at 50.0 µM 99.5%
